## Melting point values, as collected for the OPERA models

From the experimental data distributed with OPERA 2.9.

Melting points are in °C.

compound	mp (°C)
Clc1nc(-c2cccs2)nc2ccccc12	124
CCCCCCCCCCCCCCCCCC(=O)N[C@@H](CO)[C@H](O)[C@H](O)CCCCCCCCCCCCCC	125.3
Cc1ccc(-n2[nH]nnc2=S)cc1	113
CCCCn1c(N)cc(=O)n(C)c1=O	93
CCCCCCCC(=O)OCCCOC(=O)CCCCCCC	6
CCOC(=O)c1oc2ccccc2c1CBr	78
CCCCCCCCCCCCSCc1cc(C)c(O)c(CSCCCCCCCCCCCC)c1	28
CC(=O)OCC(=O)[C@@]1(O)[C@H](C)C[C@H]2[C@@H]3C[C@H](F)C4=CC(=O)C=C[C@]4(C)[C@@]34O[C@H]4C[C@@]21C	211.3
CCN(CCNS(C)(=O)=O)c1ccc(N)c(C)c1	66.5
CCOC(=O)c1nn(-c2ccc(OC)cc2)c2c1CCN(c1ccc([N+](=O)[O-])cc1)C2=O	190.8
OC[C@@]1(O)CO[C@](O)(CO)CO1	78.5
Cc1nn(-c2ccccc2)c(Oc2ccccc2)c1C=O	93
CN1CCSC1=S	70.28
O=C(Nc1ccccc1)C(Cl)C(=O)c1ccccc1 (stereo not drawn)	114
CS(=O)(=O)Nc1cccc(C(=O)O)c1	231
CCCCCCCCCCCCCC(=O)NC(CCC(=O)O)C(=O)[O-].[K+] (stereo not drawn)	201.9
NCC(O)CO (stereo not drawn)	-21
Cc1ccc(NC(=O)CCl)c(C)c1	154
Sc1cccc(S)c1	27
Nc1nnc(SCc2ccccc2)s1	160
CCCCCCC(=O)OCCOCCOCCOCCOC(=O)CCCCCC	-48
CC(C)=CCC/C(C)=C/CC/C(C)=C/C=O	16.7
O=P(O)(OCCC(F)(F)C(F)(F)C(F)(F)C(F)(F)C(F)(F)C(F)(F)F)OCCC(F)(F)C(F)(F)C(F)(F)C(F)(F)C(F)(F)C(F)(F)F	63
NC(N)=Nc1nc2ccccc2o1	180
C=C(C)C(=O)OCCOCCOC	-76.6
COc1ccc(Cl)cc1N1CC(C(=O)O)CC1=O (stereo not drawn)	152
CCOC(=O)CNC(=O)c1cn(CC)c2nc(C)ccc2c1=O	198
O=C(O)C1(c2ccc(F)cc2)CC1	127
O=c1oc2ccccc2o1	117
O=C(O)c1cccc(S(=O)(=O)N2CCc3ccccc3C2)c1	56.5
Cn1c(-c2ccccc2)c(C(=O)CC#N)c2ccccc21	156
O=C(CN1CCNCC1)N1CCCCC1	84
NS(=O)(=O)c1ccc(NC(=O)CCl)cc1	157
CCOC(=O)[C@@H](N)[C@@H](C)O	56
CCCCCCCCCCCCCCCCCCCCCC(=O)O[C@H]1[C@@H]([C@@H](CO)OC(=O)CCCCCCCCCCCCCCCCCCCCC)OC[C@@H]1OC(=O)CCCCCCCCCCCCCCCCCCCCC	70.35
O=C(Sc1nnc(S)s1)c1ccccc1	226
CCOC(OCC)[SiH2]CN1CCOCC1	-100.2
OCC(CO)O[C@H]1O[C@H](CO)[C@@H](O)[C@H](O)[C@H]1O	164.8
O=C(O)COc1ccc(Br)cc1F	107
CCCCCCCCCCCCCC[Si](C)(Cl)Cl	6
Nc1ccc(S(=O)(=O)C(F)(F)F)cc1N	110
O=C(O)c1cn(-c2ccccc2)nc1-c1ccc(Cl)cc1	247
CCCCCCC#CC(=O)OC	-6
CN(C)S(=O)(=O)c1ccc(NC(=O)CCl)cc1	116
CC(=O)O/N=C(\C(=O)Sc1nc2ccccc2s1)c1csc(N)n1	110
CCCCCCCCCCCCCCCCCCOCCCN(C)C	26.85
CC1Oc2ccc(N)cc2NC1=O (stereo not drawn)	199
Cc1cc(Cl)c(Cl)cc1C1=NN(c2ccc(S(=O)(=O)CCO)cc2)CC1	189
Cc1nc(N2CCOCC2)sc1C=O	167
CCCCCCCCCCCCCCCCCC[N+](C)(C)[O-]	130
CC(C)c1ccc(-c2nnc(N)s2)cc1	206
CCCCCC[C@H](C/C=C\CCCCCCCC(=O)OCC(COC(=O)CCCCCCC/C=C\C[C@@H](CCCCCC)OC(C)=O)OC(=O)CCCCCCC/C=C\C[C@@H](CCCCCC)OC(C)=O)OC(C)=O	-75.88
Clc1ccc(-c2ccccc2Cl)cc1Cl	60

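OPERA's authors assembled the values from existing databases and did not measure them anew. One number stands for a compound and property, with no spread given. How each value was measured is not recorded, so precision varies. Where a salt, mixture or single isomer is drawn, the source does not say that exactly this form was tested. Some upstream entries may be estimates or bounds without being marked so.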